Data: US10562848B2, “Inhibitors of TNF superfamily costimulatory interactions and methods for uses of the same” (UNIVERSITY OF MIAMI, priority 2015, dated 2020)

Tested on: Balb/c skin grafts in C57BL/6 mice
Assay: Skin allograft survival model
Assay type: in vivo, mouse
Conditions: CTLA4-Ig alone, 250 μg days 0, 2, 4, 6
Text: As a first in vivo test of the immunomodulating ability of the present compounds, the ability of compound 21045 to cause prolongation of skin allograft survival was examined. Full-thickness ear skins from donor mice (Balb/c, Jackson Laboratory; Bar Harbor, Me.) were transplanted onto the dorsal thorax of recipient mice (C57BL/6, Jackson Laboratory) by placing them on ˜1 cm diameter graft beds and securing with bandages. Following a protocol from Pinelli, D. F. et al. Am. J. Transplant. […] Mice treated with CTLA4-Ig alone rejected skin grafts with a mean survival time (MST) of 12.0 days. Addition of 21045 prolonged survival in a statistically significant manner (MST of 15 days), but less than the positive control MR-1 (MST of 19 days) (FIG. 7). Data are with a total of 5-8 mice per group. *p<0.05, ***p<0.001 compared to CTLA4-Ig alone. Skin transplants are among the most stringent transplants as they are known to generate higher immune response than, liver, heart, or kidney transplants; therefore, even small prolongations are indicative of immunomodulatory potential.

For “CTLA4-Ig: CTLA4-Ig (Orencia; Bristol-Myers Squibb) [reference compound]”, the “mean survival time (MST) of skin grafts” value was 12.0 days.
